According to patent US20140228682A1, “IMAGING PROBES, IMAGING SYSTEMS, AND METHODS OF IMAGING” (priority 2013, published 2014):

Tests used:
cartilage = assay: small animal PET imaging of cartilage / osteoarthritis joints in mice
Procedure: The mice were injected with ^89Zirconium oxalate through tail vein and then imaged by small animal PET.
The mice were injected with tracer through tail vein and then imaged at 5 days post-injection by small animal PET (left two columns of images) and optical imaging instrument (in vivo and ex vivo) (right two columns images).

[1] = mice; 100-200 times the contemplated dose per kilogram in man

Substance: ^89Zr oxalate
- time needed for the probe to accumulate in cartilage (cartilage): about five
- ill-effects observed in animals [1]: No ill-effects
- tolerability [1]: well tolerated
